Laboratory results as given in ChEMBL document CHEMBL4229384, “Success stories of natural product-based hybrid molecules for multi-factorial diseases” (Eur J Med Chem, 2018).

Sequences of proteins named here, by UniProt entry; tags and fusion partners are left off. A change or cut given only in a name is not applied to a line headed by its entry.
UniProt O42275: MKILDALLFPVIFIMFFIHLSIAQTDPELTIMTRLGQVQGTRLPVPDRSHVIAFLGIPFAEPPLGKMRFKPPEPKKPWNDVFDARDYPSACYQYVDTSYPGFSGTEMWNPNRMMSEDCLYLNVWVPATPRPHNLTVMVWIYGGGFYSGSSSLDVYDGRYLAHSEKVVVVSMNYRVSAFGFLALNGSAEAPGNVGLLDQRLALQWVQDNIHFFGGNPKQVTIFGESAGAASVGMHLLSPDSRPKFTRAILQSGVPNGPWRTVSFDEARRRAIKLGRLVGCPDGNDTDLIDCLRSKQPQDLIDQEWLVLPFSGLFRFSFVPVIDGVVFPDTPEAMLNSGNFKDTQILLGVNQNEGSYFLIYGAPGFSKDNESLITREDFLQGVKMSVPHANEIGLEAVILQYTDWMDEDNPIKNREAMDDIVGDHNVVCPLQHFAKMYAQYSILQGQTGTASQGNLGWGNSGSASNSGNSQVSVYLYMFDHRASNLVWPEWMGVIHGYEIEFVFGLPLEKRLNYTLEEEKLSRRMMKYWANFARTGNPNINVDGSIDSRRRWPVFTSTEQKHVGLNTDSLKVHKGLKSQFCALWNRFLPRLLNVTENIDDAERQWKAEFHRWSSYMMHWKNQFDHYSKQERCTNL

Biological target: Acetylcholinesterase (Electrophorus electricus, UniProt O42275)
Test: Inhibition of electric eel AChE

For `COc1ccc2c3c1O[C@H]1C[C@@H](O)C=C[C@]31CC[N+](CCCCCCCCN1C(=O)c3ccccc3C1=O)=C2`, which IC50 is on record?
The IC50 was 10 nM.
